Values of other authors, collected in US11525155B2, “Stabilisation of biological samples” (QIAGEN GmbH, priority 2013, dated 2022).

Chains of the proteins cited; added tags and fusions are not shown. Residues count along the entry.
UniProt P29466, 120-297 limits assumed: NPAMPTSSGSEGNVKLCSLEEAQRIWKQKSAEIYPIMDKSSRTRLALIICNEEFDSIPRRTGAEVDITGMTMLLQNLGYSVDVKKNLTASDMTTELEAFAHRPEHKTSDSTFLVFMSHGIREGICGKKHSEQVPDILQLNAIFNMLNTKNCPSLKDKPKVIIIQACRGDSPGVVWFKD
UniProt P29466, 317-404 limits assumed: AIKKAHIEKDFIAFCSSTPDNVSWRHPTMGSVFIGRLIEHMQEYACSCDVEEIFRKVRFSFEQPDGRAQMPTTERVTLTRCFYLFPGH

Target: human recombinant caspase-1 (Homo sapiens, UniProt P29466)
Conditions: read-out: Ki human recombinant caspase-1; cited from earlier work

## CC(=O)N[C@@H](Cc1ccc(O)cc1)C(=O)N[C@H](C(=O)N[C@@H](C)C(=O)N[C@H](C=O)CC(=O)O)C(C)C
  Ki: 0.2 nM
